pKd: −log10 of the molar value.
Columns and labels:
[1] = biological target: monoclonal antibody that recognizes the 3,6-dideoxy-D-galactose (abequose) epitope in Salmonella paratyphi B O-antigens; conditions: titration microcalorimetry; literature Kd values; read-out: Kd ± s, Microcal (microcalorimetry); cited from earlier work
[2] = tested on: monoclonal antibody that recognizes the 3,6-dideoxy-D-galactose (abequose) epitope in Salmonella paratyphi B O-antigens

Q: With `COC1OC(CO)C(O)C(OC2OC(C)C(O)CC2O)C1OC1OC(CO)C(O)C(O)C1O` (centres unmarked) [compound 5] as the molecule, how does the pKd [1] read?
A: 5.20

Q: With `COC1OC(CO)C(O)C(OC2OC(C)C(O)CC2O)C1O` (centres unmarked) [compound 4] as the molecule, how does the breakthrough volume ([2]; Solution A (compounds 1-4), compound 4 at 0.16 μM, absence of library) read?
A: 3.0 ± 0.1 µL

Q: What about the “breakthrough volume of the indicator compound” value ([2]; after pre-equilibration of the column with compound 5 (15 μM), Solution C) of the same molecule?
A: 1.1 ± 0.3 µL

Q: And the pKd [1]?
A: 3.72

Q: With `COC1OC(CO)C(OC2OC(CO)C(O)C(OC3OC(CO)C(O)C(OC4OC(C)C(O)CC4O)C3OC3OC(CO)C(OC4OC(CO)C(OC5OC(CO)C(O)C(O)C5O)C(O)C4O)C(O)C3O)C2O)C(O)C1O` (centres unmarked) [compound 6, αGlc(1-4)βGlc(1-4)αGal(1-2)-[αAbe(1-3)]αMan(1-3)αGlc(1-4)βGlc-OCH3] as the molecule, how does the pKd [1] read?
A: 6.06
